Experimental data published in BindingDB's records for doi:10.1038/nchembio.1930 (Albert Einstein College of Medicine, 2015).

Amino acid sequences for entries named in this document (tags omitted). Residues count along the entry.
UniProt O75874, 2-414 R132G limits assumed: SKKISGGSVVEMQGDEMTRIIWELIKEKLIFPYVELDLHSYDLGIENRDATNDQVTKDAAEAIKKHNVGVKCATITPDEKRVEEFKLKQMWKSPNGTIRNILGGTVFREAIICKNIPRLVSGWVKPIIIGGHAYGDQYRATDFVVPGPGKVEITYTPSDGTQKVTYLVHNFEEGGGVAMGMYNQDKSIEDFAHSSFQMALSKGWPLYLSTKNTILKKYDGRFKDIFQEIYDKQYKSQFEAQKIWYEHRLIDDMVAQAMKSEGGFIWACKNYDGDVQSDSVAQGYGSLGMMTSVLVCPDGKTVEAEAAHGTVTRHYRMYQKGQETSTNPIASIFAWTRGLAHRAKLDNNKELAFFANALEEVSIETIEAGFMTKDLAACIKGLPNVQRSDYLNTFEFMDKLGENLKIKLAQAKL
UniProt O75874, 2-414 R132H limits assumed: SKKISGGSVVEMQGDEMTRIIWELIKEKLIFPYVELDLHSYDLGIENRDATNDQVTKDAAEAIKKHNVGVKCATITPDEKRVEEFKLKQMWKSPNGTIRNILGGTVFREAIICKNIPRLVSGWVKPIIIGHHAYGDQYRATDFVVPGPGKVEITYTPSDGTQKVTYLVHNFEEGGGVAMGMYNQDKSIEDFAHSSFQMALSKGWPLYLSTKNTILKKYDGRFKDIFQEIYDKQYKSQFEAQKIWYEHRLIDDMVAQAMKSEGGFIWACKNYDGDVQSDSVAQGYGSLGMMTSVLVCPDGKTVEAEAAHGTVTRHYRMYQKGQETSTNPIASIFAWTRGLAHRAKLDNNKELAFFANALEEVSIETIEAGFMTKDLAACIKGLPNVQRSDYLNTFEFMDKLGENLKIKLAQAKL
UniProt O75874, 2-414 R132C limits assumed: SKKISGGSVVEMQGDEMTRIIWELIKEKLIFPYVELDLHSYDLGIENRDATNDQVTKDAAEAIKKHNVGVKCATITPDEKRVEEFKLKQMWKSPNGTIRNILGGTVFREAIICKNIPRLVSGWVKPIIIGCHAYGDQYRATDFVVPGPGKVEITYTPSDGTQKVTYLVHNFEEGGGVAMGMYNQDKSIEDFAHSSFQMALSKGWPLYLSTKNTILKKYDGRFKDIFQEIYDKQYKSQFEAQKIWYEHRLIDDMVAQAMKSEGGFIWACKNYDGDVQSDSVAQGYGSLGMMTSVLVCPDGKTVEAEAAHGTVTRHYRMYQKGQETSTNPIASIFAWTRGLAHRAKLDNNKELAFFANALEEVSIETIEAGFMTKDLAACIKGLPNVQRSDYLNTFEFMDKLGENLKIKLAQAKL
UniProt O75874, whole entry: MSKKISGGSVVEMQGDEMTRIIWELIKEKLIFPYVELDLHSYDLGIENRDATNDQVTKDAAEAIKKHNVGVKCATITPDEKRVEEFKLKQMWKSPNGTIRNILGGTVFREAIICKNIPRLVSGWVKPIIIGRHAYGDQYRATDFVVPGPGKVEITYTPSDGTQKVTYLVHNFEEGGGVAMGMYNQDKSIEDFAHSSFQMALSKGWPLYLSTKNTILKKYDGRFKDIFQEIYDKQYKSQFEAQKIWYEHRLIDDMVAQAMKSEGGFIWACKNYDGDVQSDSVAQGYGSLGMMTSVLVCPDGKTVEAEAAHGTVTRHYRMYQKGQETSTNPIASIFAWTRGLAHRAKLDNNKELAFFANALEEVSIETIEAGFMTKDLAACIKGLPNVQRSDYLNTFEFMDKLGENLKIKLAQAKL

Experiments:
Settings in all cases: 25 °C
[1] = target: Isocitrate dehydrogenase [NADP] cytoplasmic [R132G] (Homo sapiens, UniProt O75874, R132G); experiment: RapidFire-MS/MS and NADPH Assays
Protocol: (§1) RapidFire-MS/MS measurements of mutant IDH1 and IDH2 reactions were conducted at room temperature in 384-well Greiner polypropylene microtiter plates in a total volume of 20 μL of assay buffer. Final compound concentrations were typically varied from 0.5 to 100,000 nM, though in the case of tight-binding inhibition a range of 0.4 nM to 2 μM was used with a 1.5-fold dilution scheme. The αKG concentration was fixed at 500 μM, the NADPH concentration was fixed at 50 μM, and mutant IDH1 and IDH2 were fixed at 15 nM. Reactions were conducted in duplicate and quenched with final concentrations of 100 mM EDTA. After each addition plates were centrifuged for 60 s to ensure complete mixing of reagents. Endpoint data was obtained after 2 h for R132C IDH1, R132G IDH1, R140Q IDH2 and R172S IDH2 and after 4 h for R132H IDH1. For the RapidFire-MS/MS analysis, a 0.5 μL aliquot of each well was diluted 200-fold into a separate analysis plate containing 100 μL of a f

[2] = target: Isocitrate dehydrogenase [NADP] cytoplasmic [R132H] (Homo sapiens, UniProt O75874, R132H); experiment: RapidFire-MS/MS and NADPH Assays
Protocol: as §1

[3] = target: Isocitrate dehydrogenase [NADP] cytoplasmic [R132C] (Homo sapiens, UniProt O75874, R132C); experiment: RapidFire-MS/MS and NADPH Assays
Protocol: as §1

[4] = target: Isocitrate dehydrogenase [NADP] cytoplasmic (Homo sapiens, UniProt O75874); experiment: Diaphorase/Resazurin Coupled Assay
Protocol: For WT IDH1 and IDH2, reactions were conducted at room temperature in 384-well Greiner black microtiter plates in a total volume of 10 μL of assay buffer. Final compound concentrations were typically varied from 5 to 100,000 nM; the isocitrate concentration was fixed at 10 μM, the NADP+ concentration was fixed at 5 μM, and WT IDH1 and IDH2 were fixed at 0.1 nM. Reactions were conducted in duplicate and run kinetically. After each addition, plates were centrifuged for 60 s to ensure complete mixing of reagents.

IC50 [1]: 2.9 nM
IC50 [2]: 4.6 nM
IC50 [3]: 3.8 nM
IC50 [4]: 46 nM
SMILES: C[C@H](O)c1cccc(NC(=O)c2nn(Cc3ccc(F)cc3)c3c2CN(C(=O)c2ccc[nH]2)C[C@H]3C)c1 [GSK321]
